Reference: patent US9428568B2, “Compositions and methods for modulating cell-cell fusion via intermediate-conductance calcium-activated potassium channels” (BOEHRINGER INGELHEIM INTERNATIONAL GMBH, priority 2008, dated 2016)
Entries after “also recorded” stand apart in the source; their conditions may differ.

Columns and labels:
human PBMCs = experiment: Human osteoclastogenesis / cell fusion of PBMCs under M-CSF+RANKL stimulation (TRAP+ osteoclast-like cells); assay type: cell-based; details: FIGS. 10A-B, four replicates
Protocol: Human osteoclasts. These cells were generated using normal peripheral blood blood (Allcells, Emeryville, Calif.). Peripheral blood monocytes were isolated using Ficoll-Paque and cultured at a concentration of 3×10^6 cells/ml in MEME supplemented with 10% FCS, recombinant human M-CSF (25 ng/ml) and recombinant human RANKL (40 ng/ml). The medium was changed once a week.

SK4 channels = SK4 channels (Homo sapiens, UniProt O15554); details: general statement in the definition of SK4 channels; cited from earlier work
[1] = test system: bone marrow-derived macrophages from WT mice; experiment: Osteoclastogenesis / cell fusion of bone marrow-derived macrophages of WT mice under M-CSF+RANKL (TRAP+ osteoclast-like cells); assay type: cell-based, mouse; details: bone marrow-derived macrophages of WT (SK4+/+) mice; FIGS. 7A-B; five replicates
Text: Bone marrow- and spleen-derived mouse osteoclasts. These cells were generated from four- to twelve-week-old sk4^+/+ and sk4^−/− mice as previously described (Cui et al. (2007) Proc. Natl. Acad. Sci. USA 104:14436-14441; Epub 2007 Aug. 28). Bone marrow and spleen cells were isolated, mechanically dissociated and cultured at a density of 1.33×10^6 cells per cm^2 in MEM containing 10% heat-inactivated fetal bovine serum (HyClone, Logan, Utah), 100 units/ml penicillin-streptomycin (Gibco Invitrogen, Carlsbad, Calif.), 1% MEM vitamins, 1% glutamine, and 30 ng/ml M-CSF (PeproTech, Inc. Rocky Hill, N.J.). RANKL (PeproTech, Inc.) was added at a concentration of 40 ng/ml. Media was changed every three days. To assess the formation of an actin ring, a landmark of osteoclast activity, cells were cultured in the presence of M-CSF (20 ng/ml) and RANKL (40 ng/ml) on glass slides for 8 days, fixed and reacted with phalloidin-Alexa 568 and Topro-3. To further assess resorptive activity, cells were cultured on Osteologic slides that are coated with artificial bone made of calcium-phosphate crystals. After 8 days, cells were lysed and the substrates stained with silver nitrate according to the supplier's instructions. The resorbed areas on slides were recorded by histomorphometry.

For Clc1ccccc1C(c1ccccc1)(c1ccccc1)n1cccn1 [TRAM-34, 1-[(2-chlorophenyl)diphenylmethyl]-1H-pyrazole], the “human osteoclastogenesis in vitro (surface area of TRAP+ osteoclast-like cells, POC relative to no compound control)” value (human PBMCs) is given as “inhibited human osteoclastogenesis in vitro in a dose-dependent manner; also recorded: prevent osteoclastogenesis in a dose-dependent manner”, the “block of SK4 channels” value (SK4 channels) is given as “blocked” and the “osteoclastogenesis (surface area of TRAP+ osteoclast-like cells, POC relative to no compound control)” value [1] is given as “attenuated osteoclastogenesis in a dose dependent manner; also recorded: prevent osteoclastogenesis in a dose-dependent manner”.
